Source: US20240140963A1, “FUSED TRICYCLIC CYCLIN-DEPENDENT KINASE INHIBITOR, AND PREPARATION METHOD THEREFOR AND PHARMACEUTICAL USE THEREOF” (Tuojie Biotech (Shanghai) Co., Ltd., priority 2021, published 2024)

Target: T1, human PXR (Homo sapiens, UniProt O75469)
T1 construct: host or cells: DPX2 (HepG2)
T1 sequence (O75469 1-434): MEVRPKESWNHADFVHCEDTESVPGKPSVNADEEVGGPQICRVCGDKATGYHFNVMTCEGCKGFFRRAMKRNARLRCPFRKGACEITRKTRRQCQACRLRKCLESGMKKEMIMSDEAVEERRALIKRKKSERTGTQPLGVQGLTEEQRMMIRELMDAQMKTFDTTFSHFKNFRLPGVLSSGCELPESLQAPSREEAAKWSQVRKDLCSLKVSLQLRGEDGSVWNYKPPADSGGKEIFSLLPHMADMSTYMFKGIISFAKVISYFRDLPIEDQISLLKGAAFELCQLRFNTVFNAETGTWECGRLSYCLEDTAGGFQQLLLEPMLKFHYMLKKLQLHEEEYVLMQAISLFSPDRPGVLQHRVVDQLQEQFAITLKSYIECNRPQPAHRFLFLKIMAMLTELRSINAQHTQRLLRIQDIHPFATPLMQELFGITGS
Assay: PXR induction assay in DPX2 cells (luciferase reporter)
Type: cell-based
Procedure: 1. The potential of the test compounds to induce the activity of drug metabolism enzymes by in vitro activating PXR was evaluated. EC50 values were obtained by assaying different concentrations of test compounds (30, 10, 3.33, 1.11, 0.370 and 0.123 μM) by in vitro activating PXR. The concentrations of the positive control rifampicin were 20, 5, 1.25, 0.312, 0.0781 and 0.195 μM.
1) DPX2 (HepG2 cells were stably transfected with the human PXR gene and the fluorescent reporter gene) cells were purchased from Puracyp (Carlsbad, CA).
2) DPX2 cells were cultured in a T-75 culture flask in a 37° C., 5% CO2 incubator with 95% relative humidity. When covering 80-90% of the bottom of the culture flask, the cells were digested. […]
1) After […] of drug treatment, quantification of PXR activation could be performed on the culture. […]
5) The ONE-Glo reagent was poured into a reagent reservoir, and then 50 μL was transferred to each well using a multi-channel pipette. […] After the incubation, the luminescence value of each well was read using a luminometer.
The luciferase activity was expressed in terms of […], where RLU is the mean luminescence intensity value of two replicates of each concentration of each compound, and RFU is the mean fluorescence intensity of two replicates of each concentration of each compound. […]

Induction fold (compound concentration 0.0195 μM): 1.33 | Induction fold (compound concentration 20.0 μM): 17.60
SMILES: CO[C@H]1/C=C/O[C@@]2(C)Oc3c(C)c(O)c4c(O)c(c(/C=N/N5CCN(C)CC5)c(O)c4c3C2=O)NC(=O)/C(C)=C\C=C\[C@H](C)[C@H](O)[C@@H](C)[C@@H](O)[C@@H](C)[C@H](OC(C)=O)[C@@H]1C [Rifampicin, rifampicin, reference compound]
